This is a sample that favours compounds with a hit; in the whole collection about 16% have one here.
TDP1 inh: inhibitors of human tyrosyl-DNA phosphodiesterase TDP1; recombinant TDP1, AlphaScreen DNA substrate cleavage; Potency, µM (top dose mostly 130 µM), inactives show at the top dose activity change, negative = inhibition, usual class: inhibitors; hit rate 0.28% among 350,000; further: potency means the concentration at half of the fitted maximal effect; on the % scale 0 is the no-effect control and ±100 the full control effect; nearly all actives have a fitted effect of over 40% in size
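Steps: enzyme plus compound, 15 min RT; add biotin/phosphotyrosine-FITC oligonucleotide (15 nM final), react 5 min; add donor/acceptor beads (10 ug/ml final), 10 min; read AlphaScreen. Tdp1 at 1 nM final.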
uPA surface inh: cell surface uPA generation inhibition; cell surface uPA generation assay, qHTS; Potency, µM (top dose mostly 38.3 µM), for the others: at the top dose activity change, negative = inhibition, most hits filed as inhibitors; hit rate 0.31% among 330,000; AID 540303; active means well fitted inhibition curve with a large enough effect; inconclusive means small, poorly fitted or top-dose-only effect; inactive means no such curve, though single readings can be large or run the other way; tested in mouse RAW 264.7 cells; further: potency means the concentration at half of the fitted maximal effect; on the % scale 0 is the no-effect control and ±100 the full control effect; nearly all actives have a fitted effect of over 55% in size
DT40 TDP1 CPT: DT40-hTDP1 cell growth loss with CPT | Potency, µM (doses to about 46.2 µM), without a hit: at the highest dose activity change, negative = growth inhibition, actives largely listed as inhibitors | chicken DT40 Tdp1-/-;hTDP1 cells + 20 nM CPT, ATP luminescence, 48 h | AID 686979 | hit rate 12% among 420,000; further: potency means the concentration at half of the fitted maximal effect; on the % scale 0 is the no-effect control and ±100 the full control effect; nearly all actives have a fitted effect of over 55% in size
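Chicken DT40 Tdp1-/- cells stably complemented with human TDP1 were seeded at 400 cells/well in medium containing 20 nM camptothecin, exposed to pin-transferred compounds, and grown at 37 °C for at least 48 hr. Viability was read as ATP luminescence.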
TDP1 cell noCPT: qHTS for Inhibitors of human tyrosyl-DNA phosphodiesterase 1 (TDP1): qHTS in cells in absence of CPT; AID 686978, 2013; Potency, µM (series often up to 46.2 µM), for inactives: top-dose activity change, negative = growth inhibition, usual class: inhibitors; hit rate 15% among 420,000; DT40 Tdp1-/- hTDP1 cells, no CPT, ATP luminescence, 48 h; further: potency means the concentration at half of the fitted maximal effect; on the % scale 0 is the no-effect control and ±100 the full control effect; nearly all actives have a fitted effect of over 55% in size
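Stably hTDP1-transfected Tdp1-null chicken DT40 cells were treated with library compounds minus camptothecin and grown for at least 48 hr at 37 °C, after which cellular ATP was quantified by luminescence.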
miR-21 FLuc: miR-21 reporter, rising signal; HeLa miR-21 FLuc reporter, luciferase, 48 h; Potency, µM (titrated, usually from 38.3 µM), without a hit: top-dose reporter change, positive = more light; AID 2288; 340,000 tested, under 10 active; active = well fitted rising curve with a large enough effect; inconclusive = small, poorly fitted or top-dose-only effect; inactive = no such curve, though single readings can be large or run the other way;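 further: % of control where 0% means no effect; miR-21 action dims this reporter so a rising signal means less miR-21 action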
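HeLa miR-21-FLuc reporter line, endogenous miR-21; 2000 cells/well in DMEM/10% FBS; compound titration up to ~40uM final, 48 h, 37 degree Celsius; luciferase detection reagent, 15 min lysis, CCD luminescence.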
Numbers without * were called inactive; ? = inconclusive; . = no result given; [ ] = remark or other dose. Unless noted, the call rests on the fitted dose curve; in most records, active means well fitted curve in the direction sought with a large enough effect; inconclusive means small, poorly fitted or top-dose-only effect, or another doubt; inactive means no such curve, though single readings can be large; an effect the other way counts as inactive or inconclusive.

The opening 5 compounds (preview)
Abbreviations – A = TDP1 inh; B = uPA surface inh; C = DT40 TDP1 CPT; D = TDP1 cell noCPT; E = miR-21 FLuc
COC(=O)[C@@]12CCCCN1[C@H](c1ccc(-c3cccc(Cl)c3)cc1)[C@H]1C(=O)N(C)C(=O)[C@H]12
  A: -1.7%	B: -1.3%	C: ?	D: 23.1µM*	E: .

O=C(C1CC1)N1CCN(c2ccc([N+](=O)[O-])cc2)CC1
  A: .	B: -28.9%	C: -17.3%	D: -16.7%	E: .

Clc1ccc(CO/N=C/c2c(-c3ccccc3)nc3n2CCS3)c(Cl)c1
  A: 1.0%	B: 1.8%	C: ?	D: ?	E: -3.5%

COC(=O)[C@@]12CCCN1[C@H](c1ccc(-c3ccc(Cl)c(Cl)c3)cc1)[C@H]1C(=O)N(C)C(=O)[C@H]12
  A: 3.7%	B: -17.6%	C: ?	D: 11.6µM*	E: .

COC(=O)[C@@]12CCCN1[C@H](c1ccc(-c3cccc(Cl)c3)cc1)[C@H]1C(=O)N(C)C(=O)[C@H]12
  A: 4.2%	B: -19.5%	C: 23.1µM*	D: 9.2µM*	E: .

The whole of this part, from the start:
Abbreviations – A = TDP1 inh; B = uPA surface inh; C = DT40 TDP1 CPT; D = TDP1 cell noCPT; E = miR-21 FLuc
COC(=O)[C@@]12CCCCN1[C@H](c1ccc(-c3cccc(Cl)c3)cc1)[C@H]1C(=O)N(C)C(=O)[C@H]12
  A: -1.7%	B: -1.3%	C: ?	D: 23.1µM*	E: .

O=C(C1CC1)N1CCN(c2ccc([N+](=O)[O-])cc2)CC1
  A: .	B: -28.9%	C: -17.3%	D: -16.7%	E: .

Clc1ccc(CO/N=C/c2c(-c3ccccc3)nc3n2CCS3)c(Cl)c1
  A: 1.0%	B: 1.8%	C: ?	D: ?	E: -3.5%

COC(=O)[C@@]12CCCN1[C@H](c1ccc(-c3ccc(Cl)c(Cl)c3)cc1)[C@H]1C(=O)N(C)C(=O)[C@H]12
  A: 3.7%	B: -17.6%	C: ?	D: 11.6µM*	E: .

COC(=O)[C@@]12CCCN1[C@H](c1ccc(-c3cccc(Cl)c3)cc1)[C@H]1C(=O)N(C)C(=O)[C@H]12
  A: 4.2%	B: -19.5%	C: 23.1µM*	D: 9.2µM*	E: .

COC(=O)[C@@]12CCCCN1[C@H](c1ccc(-c3cccc(Cl)c3)c(OC)c1)[C@H]1C(=O)N(C)C(=O)[C@H]12
  A: 0.9%	B: 16.5%	C: 18.4µM*	D: ?	E: .

O=C(c1ccc(Cl)c([N+](=O)[O-])c1)N1CCN(c2ccccn2)CC1
  A: 1.2%	B: 4.7%	C: -10.3%	D: ?	E: -3.6%

O=[N+]([O-])c1cc(-c2n(-c3ccccn3)c3ccccc3[n+]2-c2ccccn2)ccc1Cl
  A: 4.8%	B: -0.8%	C: 16.4µM*	D: 23.1µM*	E: 15.3%

COc1cccc(CN(Cc2ccco2)S(=O)(=O)c2ccc(S(=O)(=O)NCc3ccccc3)cc2)c1OC
  A: 5.9%[56.1 µM]	B: .	C: 29.1µM*	D: ?	E: 22.2%

COc1cccc(CN(Cc2ccccc2F)S(=O)(=O)c2ccc(S(=O)(=O)NCc3ccccc3)cc2)c1
  A: 0.0%	B: 6.2%	C: ?	D: ?	E: -5.4%

CC(C)=CCC/C(C)=C/CC/C(C)=C/CC/C(C)=C/CC/C(C)=C/CC/C(C)=C/CC/C(C)=C/CC/C(C)=C/CC/C(C)=C/CO
  A: 5.6%	B: .	C: -0.8%	D: -5.8%	E: .

CCSc1nnc(Nc2ccccc2)s1
  A: 8.0%	B: -8.7%	C: -6.7%	D: -21.7%	E: -48.2%

CC(C#N)Sc1nnc(Nc2ccccc2)s1 (centres undefined)
  A: -2.5%	B: 0.1%	C: -105.6%	D: 18.4µM*	E: -15.9%

CN1CCN(c2nc(-c3cccs3)nc3ccccc23)CC1
  A: 2.7%	B: ?	C: ?	D: ?	E: -13.7%

COc1ccccc1S(=O)(=O)N1CCN(c2nc(-c3cccs3)nc3ccccc23)CC1
  A: 0.2%	B: .	C: 10µM*	D: 7.94µM*	E: .

CCOC(=O)c1ccccc1S(=O)(=O)N1CCN(c2nc(-c3cccs3)nc3ccccc23)CC1
  A: 1.4%	B: .	C: 11.2µM*	D: 11.2µM*	E: .

CC(=O)c1ccccc1S(=O)(=O)N1CCN(c2nc(-c3cccs3)nc3ccccc23)CC1
  A: 3.1%	B: .	C: 8.91µM*	D: 7.08µM*	E: .

CC(C)(C)OC(=O)N1CCN(c2nc(-c3cccs3)nc3ccccc23)CC1
  A: -0.6%	B: .	C: 12.6µM*	D: 8.91µM*	E: .

NS(=O)(=O)c1ccc(S(=O)(=O)N2CCN(c3nc(-c4cccs4)nc4ccccc34)CC2)cc1
  A: 2.7%	B: .	C: ?	D: ?	E: .

Cc1ccccc1S(=O)(=O)N1CCN(c2nc(-c3cccs3)nc3ccccc23)CC1
  A: 1.5%	B: .	C: ?	D: ?	E: .

O=C(CCNS(=O)(=O)c1ccc(OC(F)(F)F)cc1)N1CCN(S(=O)(=O)c2cccc(F)c2)CC1
  A: 3.0%[0.505 µM]	B: 2.8%	C: ?	D: ?	E: .

O=C(NCC1CCCO1)C1CCCN(Cc2cnn(-c3ccccc3)c2-n2cccc2)C1 (centres undefined)
  A: -2.3%	B: 1.1%	C: -15.7%	D: ?	E: 0.9%

CCOc1ccc(C(=O)NCC(=O)NCCSc2ccc(Br)cc2)cc1OCC
  A: .	B: 2.1%	C: ?	D: ?	E: .

O=C(c1ccccc1)N1CCN(c2nc(-c3cccs3)nc3ccccc23)CC1
  A: 2.5%	B: .	C: .	D: .	E: .

O=C(c1ccc2c(c1)OCCO2)N1CCN(c2nc(-c3cccs3)nc3ccccc23)CC1
  A: 0.9%	B: .	C: 11.2µM*	D: 11.2µM*	E: .

Cc1nc(N2CCCCC2)c2c(-c3cccs3)csc2n1
  A: 2.6%	B: 6.7%	C: ?	D: ?	E: -4.7%

COc1ccc(Nc2nc(-c3cccs3)nc3ccccc23)cc1S(=O)(=O)N1CCOCC1
  A: .	B: -10.6%	C: 18.4µM*	D: 3.26µM*	E: .

COc1ccc(NS(=O)(=O)c2cccs2)cc1S(=O)(=O)N1CCOCC1
  A: 10.1%	B: -4.1%	C: 12.8%	D: -4.4%	E: 12.3%

Cc1nc(N2CCN(S(=O)(=O)c3ccccc3C#N)CC2)c2c(-c3cccs3)csc2n1
  A: 0.0%	B: -14.6%	C: ?	D: 20.6µM*	E: 25.4%

COc1ccc(NS(=O)(=O)c2c(C)[nH]c(C)c2C(=O)N2CCCCC2)cc1Cl
  A: 1.6%	B: 0.6%	C: ?	D: -16.1%	E: 8.0%

COc1cc(NC(=O)c2sc3ncn(CC(=O)N4CCCCC4)c(=O)c3c2C)cc(OC)c1OC
  A: 13.4%	B: 3.7%	C: -26.3%	D: -16.8%	E: 6.0%

COC(=O)c1nc2ccc(C)cn2c1F
  A: 1.3%	B: ?	C: 10.7%	D: -8.1%	E: -45.9%

CCCc1nc2ccc(C(=O)OC)cn2c1Cc1ccc(C)cc1
  A: .	B: .	C: 18.4µM*	D: 23.1µM*	E: .

CCCc1nc2ccc(C(=O)OC)cn2c1Cc1ccccc1C(F)(F)F
  A: .	B: .	C: ?	D: 16.4µM*	E: .

CCCc1nc2ccc(C(=O)OC)cn2c1Cc1ccccc1
  A: .	B: .	C: ?	D: 29.1µM*	E: .

CCCc1nc2ccc(C)cn2c1Cc1ccc(C)cc1
  A: .	B: .	C: 20.6µM*	D: 18.4µM*	E: .

CCCSc1nc(=O)n2cc(C)ccc2n1
  A: 2.8%	B: .	C: 6.7%	D: -3.2%	E: -37.4%

O=C(CN1C(=O)C2CC=CCC2C1=O)Nc1nc2ccccc2[nH]1 (centres undefined)
  A: 6.0%	B: -4.6%	C: 5.9%	D: -12.3%	E: -1.6%

COc1cccc(/C=C(\C(=O)O)c2ccccc2)c1
  A: -5.3%	B: -1.2%	C: 4.3%	D: -2.5%	E: -1.9%

N#Cc1cccc(C=C(C(=O)c2ccccc2)c2ccccc2)c1
  A: .	B: .	C: 11.8µM*	D: 18.7µM*	E: .

COc1ccc(/C=N/NC(=O)c2ccc(Br)cc2)cc1CN1CCOCC1
  A: 4.1%	B: -2.0%	C: 14.4%	D: -14.0%	E: -1.7%

COc1ccc(/C=C/C(=O)c2ccc(O)cc2)cc1CN1CCOCC1
  A: 0.0%	B: -8.4%	C: ?	D: 29.1µM*	E: 11.5%

COc1ccc(/C=C/C(=O)C23CC4CC(CC(C4)C2)C3)cc1CN1CCOCC1
  A: 6.5%	B: -12.6%	C: ?	D: 18.4µM*	E: 7.9%

O=C(/C=C/c1ccccc1)c1ccc(O)cc1
  A: 15.2%[56.1 µM]	B: .	C: ?	D: ?	E: .

O=C(/C=C/c1cccc(O)c1)c1ccc(N2CCOCC2)cc1
  A: 9.5%	B: 10µM*	C: ?	D: 14.6µM*	E: -2.1%

COc1ccc(C(=O)/C=C/c2ccc(OC)c(CN3CCOCC3)c2)cc1
  A: 8.1%	B: -8.5%	C: ?	D: 23.1µM*	E: 28.3%

CC(=O)c1c(C)nc(-c2ccccc2)nc1NC(=O)Cc1ccccc1
  A: 1.2%	B: 4.9%	C: -23.1%	D: ?	E: -6.7%

CCCNC(=O)Nc1cc(OC)c(OC)cc1Cc1nccc2cc(OC)c(OC)cc12
  A: .	B: 2.4%	C: -1.6%	D: 9.0%	E: -6.1%

From PubChem
